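1) Cells in 96-well plates. 2) Compound, 48 h, 5 concentrations. 3) Linear interpolation between surrounding doses. 4) Unreached endpoint = highest concentration. Abbreviation: GI50, concentration required for 50% inhibition of growth. TGI denotes the concentration required for complete inhibition of growth.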

Our source for the GI50 and TGI values is PubChem BioAssay (NCI).

In this assay the test system is U251 CNS. Nature of the assay: NCI tumour cell line growth inhibition, 48 h.

With `CCCCCCC[CH2][Sn]([CH2]CCCCCCC)([O]c1c([N+](=O)[O-])cc([N+](=O)[O-])cc1[N+](=O)[O-])[O]c1c([N+](=O)[O-])cc([N+](=O)[O-])cc1[N+](=O)[O-]`, the GI50 was 1.75 µM and the TGI amounted to 4.47 µM.
